Source: US11865182B2, “Product and process for employing GC7 (N1-guanyl-1,7-diaminoheptane) based antigen binding conjugates in cancer therapy” (priority 2017, dated 2024)

Test system: bi-lateral subcutaneous tumors derived from 779E cells
Experiment: in-vivo analysis of ADCs cytotoxic effect in subcutaneous mouse model (loss of GFP fluorescence signal, IVIS imaging)
Conditions: nude mice, 779E subcutaneous tumors, tail vein injection, after 12 days
Protocol: The following is an exemplary protocol and results for in-vivo analysis of ADCs cytotoxic effect in subcutaneous mouse model as illustrated in FIG. 10.
After purification via gel chromatography, where the cytotoxicity effect of the drug on the eIF5A positive tumor cell compared to eIF5A negative cells was determined by measuring the loss of fluorescence signal of the GFP tagged tumor cells after administration of the ADC in vivo via tail vein injection in mice using an IVIS Spectrum in vivo imaging system.

GC7-Cetuximab-EDC-DYLIGHT 550 NHS
tumor growth inhibition: −3.7%

GC7-Cetuximab-SPDP-DYLIGHT 550 NHS
tumor growth inhibition: 84.4%
